From PubChem BioAssay AID602261 (Sanford-Burnham Center for Chemical Genomics, 2012)
The list shows a part of the results, in another mix than the full data. The source made the active and inactive calls.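 How the source made its calls: active means compounds whose normalised, plate-corrected inhibition of enzyme fluorescence in the single-dose primary screen is 50% or more; inactive means the rest.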

Protein sequences, listed by entry. Tags and fused reporters are not part of them.
UniProt P49327, whole entry: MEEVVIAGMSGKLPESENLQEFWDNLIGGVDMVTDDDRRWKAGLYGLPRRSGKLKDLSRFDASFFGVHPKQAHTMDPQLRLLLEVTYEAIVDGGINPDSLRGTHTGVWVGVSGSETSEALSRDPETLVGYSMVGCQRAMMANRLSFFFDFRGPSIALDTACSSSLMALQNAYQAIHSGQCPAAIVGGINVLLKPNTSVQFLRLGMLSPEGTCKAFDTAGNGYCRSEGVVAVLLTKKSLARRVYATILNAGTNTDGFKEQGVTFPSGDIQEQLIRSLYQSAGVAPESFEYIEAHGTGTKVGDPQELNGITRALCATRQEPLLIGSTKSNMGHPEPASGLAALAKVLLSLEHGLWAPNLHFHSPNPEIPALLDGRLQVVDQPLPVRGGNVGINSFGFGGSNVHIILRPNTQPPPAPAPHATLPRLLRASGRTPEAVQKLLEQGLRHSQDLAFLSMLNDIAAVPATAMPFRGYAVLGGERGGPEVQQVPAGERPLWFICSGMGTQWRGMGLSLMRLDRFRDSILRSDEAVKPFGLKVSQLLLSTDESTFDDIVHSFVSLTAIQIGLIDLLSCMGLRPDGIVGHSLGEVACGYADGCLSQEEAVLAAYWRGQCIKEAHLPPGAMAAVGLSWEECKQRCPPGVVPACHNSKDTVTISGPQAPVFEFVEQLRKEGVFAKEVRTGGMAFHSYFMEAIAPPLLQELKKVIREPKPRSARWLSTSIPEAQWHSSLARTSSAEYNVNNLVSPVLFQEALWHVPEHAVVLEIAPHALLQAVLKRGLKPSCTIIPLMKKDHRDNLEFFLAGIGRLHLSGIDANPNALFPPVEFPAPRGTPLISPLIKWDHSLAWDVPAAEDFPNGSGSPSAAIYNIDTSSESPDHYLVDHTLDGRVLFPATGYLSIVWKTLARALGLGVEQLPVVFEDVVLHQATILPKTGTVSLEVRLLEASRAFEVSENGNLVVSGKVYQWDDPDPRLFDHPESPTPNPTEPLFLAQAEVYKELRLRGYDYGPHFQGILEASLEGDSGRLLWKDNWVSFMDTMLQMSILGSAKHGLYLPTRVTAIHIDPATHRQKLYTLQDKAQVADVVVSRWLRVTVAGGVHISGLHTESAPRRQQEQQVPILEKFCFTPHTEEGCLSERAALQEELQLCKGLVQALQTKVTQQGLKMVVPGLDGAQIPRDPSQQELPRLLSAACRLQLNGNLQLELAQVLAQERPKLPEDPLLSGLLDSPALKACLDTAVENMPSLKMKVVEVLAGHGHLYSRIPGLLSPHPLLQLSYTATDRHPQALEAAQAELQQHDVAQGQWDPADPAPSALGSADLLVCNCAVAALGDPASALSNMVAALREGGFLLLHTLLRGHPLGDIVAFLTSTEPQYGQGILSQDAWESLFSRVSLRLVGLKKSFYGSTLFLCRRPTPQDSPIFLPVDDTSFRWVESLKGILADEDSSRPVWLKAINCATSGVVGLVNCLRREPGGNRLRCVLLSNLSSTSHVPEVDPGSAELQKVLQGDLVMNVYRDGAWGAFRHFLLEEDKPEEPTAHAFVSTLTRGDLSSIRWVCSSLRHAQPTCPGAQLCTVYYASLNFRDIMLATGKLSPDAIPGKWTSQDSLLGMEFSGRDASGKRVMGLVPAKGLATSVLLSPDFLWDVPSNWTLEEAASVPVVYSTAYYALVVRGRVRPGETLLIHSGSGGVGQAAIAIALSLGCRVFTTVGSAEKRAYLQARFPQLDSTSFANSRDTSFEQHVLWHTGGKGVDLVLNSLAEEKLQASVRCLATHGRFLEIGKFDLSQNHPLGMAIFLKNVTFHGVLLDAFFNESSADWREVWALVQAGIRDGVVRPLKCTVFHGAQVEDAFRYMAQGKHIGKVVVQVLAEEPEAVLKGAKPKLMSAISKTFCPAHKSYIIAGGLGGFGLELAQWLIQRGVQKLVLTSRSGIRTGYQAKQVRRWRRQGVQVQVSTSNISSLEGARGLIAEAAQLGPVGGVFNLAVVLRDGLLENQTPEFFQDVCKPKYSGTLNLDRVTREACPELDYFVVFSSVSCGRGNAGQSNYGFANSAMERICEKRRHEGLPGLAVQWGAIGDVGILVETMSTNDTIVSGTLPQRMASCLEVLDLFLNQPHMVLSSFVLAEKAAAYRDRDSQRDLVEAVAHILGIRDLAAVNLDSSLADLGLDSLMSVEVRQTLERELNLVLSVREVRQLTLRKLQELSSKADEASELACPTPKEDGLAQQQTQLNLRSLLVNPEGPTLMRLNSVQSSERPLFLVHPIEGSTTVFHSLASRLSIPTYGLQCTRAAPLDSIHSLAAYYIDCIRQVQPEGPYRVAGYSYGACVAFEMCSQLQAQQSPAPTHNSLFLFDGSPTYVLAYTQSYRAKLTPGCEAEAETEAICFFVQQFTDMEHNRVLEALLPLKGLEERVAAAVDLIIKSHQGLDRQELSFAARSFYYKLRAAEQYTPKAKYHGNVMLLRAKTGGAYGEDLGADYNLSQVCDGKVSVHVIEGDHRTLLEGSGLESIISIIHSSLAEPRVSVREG

Target: Fatty acid synthase (Homo sapiens) (UniProt P49327)
Assay: FAS thioesterase domain inhibitors, primary screen, biochemical, fluorescence intensity, uHTS (AID 602261);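 further: 0% = DMSO with enzyme and 100% = substrate without enzyme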
Details: recombinant FAS-TE, OMFH fluorogenic substrate, fluorescence endpoint; at 15 µM; hits give high values

Row | Structure (SMILES) | inhibition
1 | COc1cccc(C(c2nnnn2C2CCCC2)N2CCC(n3c(=O)[nH]c4ccccc43)CC2)c1OC (centres undefined) | inactive: 11.2%
2 | COc1cc(OC)cc(C(=O)NCC2(N3CCOCC3)CCCCC2)c1 | inactive: -4.1%
3 | COc1cccc(C(=O)N(c2cc(C)cc(C)c2)C2CCN(C(=O)OC(C)(C)C)CC2)c1 | inactive: 21%
4 | CCC(CO)(C(=O)OC1CN2CCC1CC2)c1ccccc1 (centres undefined) | inactive: -13.6%
5 | CN1CCC(Nc2ccc(Cl)cc2)CC1 | inactive: -5.5%
6 | CCOc1ncccc1C(=O)NCC1(N2CCOCC2)CCCCC1 | inactive: -6.6%
7 | CN1CCC(Nc2ccc(F)c(Cl)c2)CC1 | inactive: -1%
8 | CC(C)(C)OC(=O)N1CCC(Nc2ccccc2)CC1 | inactive: -7%
9 | O=C(O)C1(Nc2ccccc2)CCN(Cc2ccccc2)CC1 | inactive: -2.1%
10 | NN(c1ccccc1)C1CCN(CCc2ccccc2)CC1 | inactive: -6%
11 | CCCOc1ccc(C(=O)NCC2(N(C)C)CCCCC2)cc1 | inactive: -5.6%
12 | O=c1[nH]c2ccccc2n1C1CCN(C(c2cc3ccccc3o2)c2nnnn2C2CCCC2)CC1 (centres undefined) | active: 58.1%
13 | Cc1ccccc1NC1(C#N)CCN(Cc2ccccc2)CC1 | inactive: 2.7%
14 | CC(C)(C)n1nnnc1C(c1ccnc2ccccc12)N1CCC(n2c(=O)[nH]c3ccccc32)CC1 (centres undefined) | inactive: 4.4%
15 | CCN1CCC(Nc2cccc(F)c2)CC1 | inactive: -7%
16 | COc1ccc(C(c2nnnn2C2CCCCC2)N2CCC(n3c(=O)[nH]c4ccccc43)CC2)cc1 (centres undefined) | inactive: 19.9%
17 | O=C(NCC1(N2CCCCC2)CCCCC1)c1ccco1 | inactive: -10.2%
18 | Cn1c(=O)[nH]cc(N(CCCl)CCCl)c1=O | inactive: -7.3%
19 | CN(C)c1ccc(C(=O)NCC2(N3CCCCC3)CCCCC2)cc1 | inactive: -3.3%
20 | CC(=O)N(c1ccccc1)C1CCNCC1 | inactive: -11.1%
21 | COc1cccc(C(c2nnnn2C2CCCCC2)N2CCC(n3c(=O)[nH]c4ccccc43)CC2)c1OC (centres undefined) | inactive: 28.6%
22 | CCC(c1nnnn1C1CCCCC1)N1CCC(n2c(=O)[nH]c3ccccc32)CC1 (centres undefined) | inactive: -1.6%
23 | O=c1[nH]c2ccccc2n1C1CCN(C(c2ccnc3ccccc23)c2nnnn2C2CCCCC2)CC1 (centres undefined) | inactive: 21%
24 | COc1cc(OC)cc(C(=O)NCC2(N3CCCCC3)CCCCC2)c1 | inactive: -6.9%
25 | Cc1ccc(C(=O)NCC2(N3CCCCC3)CCCCC2)o1 | inactive: -3.5%
26 | Fc1ccccc1NC1CCN(Cc2ccccc2)CC1 | inactive: -5.5%
27 | Cc1ccc(NC2(C#N)CCN(Cc3ccccc3)CC2)cc1 | inactive: 3%

Row | Structure (SMILES) | inhibition
28 | CN(C)C1(CNC(=O)c2cccc(C#N)c2)CCCCC1 | inactive: -4.3%
29 | c1ccc(CN2CCC(Nc3ccccc3)CC2)cc1 | inactive: -6.1%
30 | Cc1cc(N(CCCl)CCCl)ccc1C=O | inactive: 3.1%
31 | O=c1[nH]c2ccccc2n1C1CCN(C(c2ccccc2)c2nnnn2C2CCCC2)CC1 (centres undefined) | inactive: 19.5%
32 | CCCN1CCC(Nc2cc(OC)cc(OC)c2)CC1 | inactive: -8.1%
33 | CC(C)(C)n1nnnc1C(c1cccc2ccccc12)N1CCC(n2c(=O)[nH]c3ccccc32)CC1 (centres undefined) | active: 81.3%
34 | N#Cc1ccc(C(=O)NCC2(N3CCCCC3)CCCCC2)cc1 | inactive: -3%
35 | CC(C)(C)OC(=O)N1CCC(N(C(=O)c2ccccc2)c2ccc(Cl)cc2)CC1 | inactive: 13.5%
36 | COc1cccc(C(c2nnnn2C(C)(C)C)N2CCC(n3c(=O)[nH]c4ccccc43)CC2)c1OC (centres undefined) | inactive: 14.2%
37 | CCOC(=O)N1CCC(Nc2ccc(C)cc2)CC1 | inactive: -0.9%
38 | N/C(=N\O)c1c(N)no[n+]1[O-] | inactive: -6%
39 | O=C(OC1CN2CCC1CC2)C1c2ccccc2C=Cc2ccccc21 (centres undefined) | inactive: -9.7%
40 | O=c1[nH]c2ccccc2n1C1CCN(C(c2cccs2)c2nnnn2C2CCCC2)CC1 (centres undefined) | inactive: 2.6%
41 | CCCCn1nnnc1C(c1cccc(OC)c1OC)N1CCC(n2c(=O)[nH]c3ccccc32)CC1 (centres undefined) | inactive: 9.3%
42 | CCCCn1nnnc1C(c1ccccc1)N1CCC(n2c(=O)[nH]c3ccccc32)CC1 (centres undefined) | inactive: 9%
43 | COc1cc(C(=O)NCC2(N3CCOCC3)CCCCC2)cc(OC)c1C | inactive: 12.9%
44 | O=C(NCC1(N2CCOCC2)CCCCC1)c1cc(Br)ccc1Cl | inactive: 7.1%
45 | O=c1[nH]c2ccccc2n1C1CCN(C(c2cccs2)c2nnnn2C2CCCCC2)CC1 (centres undefined) | inactive: 19.7%
46 | COc1ccc(C(=O)NCC2(N3CCOCC3)CCCCC2)cc1OC | inactive: -4.9%
47 | O=c1[nH]c2ccccc2n1C1CCN(C(c2ccnc3ccccc23)c2nnnn2C2CCCC2)CC1 (centres undefined) | inactive: 10.3%
48 | O=C(NCC1(N2CCCCC2)CCCCC1)c1cncc(Br)c1 | inactive: -7.5%
49 | CN1CCC(Nc2cccc(F)c2)CC1 | inactive: -10.6%
50 | COc1ccc(C(c2nnnn2C2CCCC2)N2CCC(n3c(=O)[nH]c4ccccc43)CC2)cc1 (centres undefined) | inactive: 0.4%
51 | Cc1ccc(C(=O)NCC2(N(C)C)CCCCC2)o1 | inactive: -4.6%
52 | CCCOc1ccc(C(=O)NCC2(N(C)C)CCCCC2)cc1OC | inactive: -5.6%
53 | CC(C)c1ccc(NC2CCN(C(=O)OC(C)(C)C)CC2)cc1 | inactive: 9.3%
54 | CCCCn1nnnc1C(c1ccccc1OC(F)(F)F)N1CCC(n2c(=O)[nH]c3ccccc32)CC1 (centres undefined) | inactive: 19.4%
